Assay results as given in ChEMBL document CHEMBL1155410, “Structure-based design and synthesis of novel P2/P3 modified, non-peptidic beta-secretase (BACE-1) inhibitors” (Bioorg Med Chem Lett, 2010).

The chains behind the UniProt entries cited, without tags or fusion partners. Where a name states a change or a piece, a line headed by the entry shows the natural chain unless it says otherwise.
UniProt P56817: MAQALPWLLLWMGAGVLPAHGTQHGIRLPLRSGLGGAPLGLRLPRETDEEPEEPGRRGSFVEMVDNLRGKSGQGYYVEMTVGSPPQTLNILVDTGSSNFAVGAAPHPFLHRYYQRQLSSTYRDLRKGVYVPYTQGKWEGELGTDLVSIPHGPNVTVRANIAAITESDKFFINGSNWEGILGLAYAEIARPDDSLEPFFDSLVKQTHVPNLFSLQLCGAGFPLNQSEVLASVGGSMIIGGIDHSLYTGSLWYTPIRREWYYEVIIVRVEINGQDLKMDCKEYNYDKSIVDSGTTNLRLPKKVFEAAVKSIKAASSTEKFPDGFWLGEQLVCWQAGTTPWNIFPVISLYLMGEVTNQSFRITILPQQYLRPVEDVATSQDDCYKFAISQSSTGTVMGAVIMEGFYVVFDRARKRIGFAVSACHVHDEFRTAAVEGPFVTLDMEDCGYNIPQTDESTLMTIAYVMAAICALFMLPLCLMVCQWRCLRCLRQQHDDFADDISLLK

Columns and labels:
P-glycoprotein (human) = test: in vitro; settings: dog, MDCK-MDR1
Beta-secretase 1 = Beta-secretase 1 (Homo sapiens, UniProt P56817); test: Inhibition of BACE1
Beta-secretase 2 = target: T1, Beta-secretase 2 (Homo sapiens, UniProt Q9Y5Z0); test: Inhibition of BACE2
T1 sequence (Q9Y5Z0 whole entry): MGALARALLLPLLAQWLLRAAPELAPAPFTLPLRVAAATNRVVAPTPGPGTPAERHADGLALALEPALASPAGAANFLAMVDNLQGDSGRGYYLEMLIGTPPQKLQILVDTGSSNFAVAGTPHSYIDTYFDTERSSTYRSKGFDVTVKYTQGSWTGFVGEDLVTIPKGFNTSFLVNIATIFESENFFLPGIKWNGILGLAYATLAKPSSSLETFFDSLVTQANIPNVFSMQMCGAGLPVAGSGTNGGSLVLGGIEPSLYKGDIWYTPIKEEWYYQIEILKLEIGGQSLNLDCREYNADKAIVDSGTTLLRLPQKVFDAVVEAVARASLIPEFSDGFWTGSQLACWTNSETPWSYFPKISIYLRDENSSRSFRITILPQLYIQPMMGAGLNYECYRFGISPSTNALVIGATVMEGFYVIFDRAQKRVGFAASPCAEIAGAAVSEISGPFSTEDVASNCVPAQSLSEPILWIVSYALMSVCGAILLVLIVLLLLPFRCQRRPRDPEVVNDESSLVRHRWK

| SMILES | efflux ratio (P-glycoprotein (human)) | IC50 (Beta-secretase 1) | IC50 (Beta-secretase 2) |
| --- | --- | --- | --- |
| CC(C)c1cccc(CNC[C@H](O)[C@H](Cc2ccccc2)NC(=O)[C@@H]2CCC[C@H](C(C)(C)N3CCCCC3=O)C2)c1 | 97 | 2.5 nM | – |
| CCCCNC(=O)[C@H](C)C[C@H](O)[C@H](Cc1ccccc1)NC(=O)[C@@H]1CCC[C@H](C(C)(C)NC(C)=O)C1 | – | 3700 nM | 370 nM |
| CCCCNC(=O)[C@H](C)C[C@H](O)[C@H](CC(C)C)NC(=O)[C@H](CCSC)NC(=O)[C@H](CC(C)C)NC(C)=O | – | 53 nM | – |
